# Test results published in patent US4857549A, “Antitumor compounds” (priority 1988, dated 1989).
# Test system: M5076 reticulum cell sarcoma
# Assay: ip M5076 reticulum cell sarcoma assay in mice
# Conditions: in words, based on Tables C and D
# Method: Another chemosensitive tumor model is intraperitoneally (ip) implanted M5076 reticulum cell sarcoma in mice. In this system B6D2F1 female mice are inoculated with 0.5 ml of a 10 percent weight:volume (w:v) brei of M5076 prepared from pooled subcutaneous (sc) tumors excised at about 21 days from c57B1/6 donor mice. Drugs are administered ip. Daily treatment is begun 24 hours after implantation and is continued for ten days. The treatment regimen for M5076 is more prolonged than for P388 because of the slower growth rate and longer control survival time of the M5076 tumor.
row,SMILES,activity in the ip M5076 reticulum cell sarcoma assay
1,"FC(F)(F)[S][Au][PH](CC[PH]([Au][S]C(F)(F)F)(c1ccccc1)c1ccccc1)(c1ccccc1)c1ccccc1 [Compound 18, μ-[1,2-Bis(diphenylphosphino)ethane]Bis[trifluoromethyl-thiogold(I)]]",good activity
2,"[Cl][Au][PH](CC[PH]([Au][Cl])(C1CCCCC1)C1CCCCC1)(C1CCCCC1)C1CCCCC1 [Compound 22, μ-[1,2-Bis(Dicyclohexylphosphino)Ethane]Bis[Chlorogold(I)]]",good activity
3,"CC(CP(c1ccccc1)c1ccccc1)P(c1ccccc1)c1ccccc1 (stereo not drawn) [Compound 35, Bis(1,2-diphenylphosphino)propane]",good activity
4,"[Cl][Au]([Cl])([Cl])[PH](CC[PH](c1ccccc1)(c1ccccc1)[Au]([Cl])([Cl])[Cl])(c1ccccc1)c1ccccc1 [Compound 12, μ-[1,2-Bis(Diphenylphosphino)Ethane]Bis[Trichlorogold(III)]]",good activity
5,[Br][Au][PH](CC[PH]([Au][Br])(c1ccccc1)c1ccccc1)(c1ccccc1)c1ccccc1 [Compound 15],good activity
6,"c1ccc(P(CCP(c2ccccc2)c2ccccc2)c2ccccc2)cc1 [Compound 33, bis(1,2-diphenylphosphino)-ethane]",good activity
